# Yeast mating assay B: variants of the scFv Ab-14

Source: Li et al. 2023 (doi:10.1038/s41467-023-39022-2), MIT Lincoln Laboratory and A-Alpha Bio; data file from the FLAb repository.

Target peptide (SARS-CoV-2 spike, HR2 region): PDVDLGDISGINAS

Ab-14 is the parent antibody, in scFv form: VH, then three GGGGS repeats, then VL. The heavy chain is unchanged in all variants.
VH: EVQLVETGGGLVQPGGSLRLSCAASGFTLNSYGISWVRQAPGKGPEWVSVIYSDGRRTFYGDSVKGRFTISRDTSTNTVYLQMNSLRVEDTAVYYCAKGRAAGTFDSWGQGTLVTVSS
VL: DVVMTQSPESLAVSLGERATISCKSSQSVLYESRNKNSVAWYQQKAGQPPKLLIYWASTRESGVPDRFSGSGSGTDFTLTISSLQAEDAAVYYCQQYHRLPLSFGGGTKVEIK

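Designed CDR sequences, proposed from the first random library and measured here. Several design methods are mixed in this list. The scFvs were displayed on barcoded MATa yeast, the peptide on MATalpha yeast. Pairs that bind mate more often; barcode pairs of the diploids are counted by sequencing. Read counts were normalised to the haploid input and turned into Kd by a linear fit to BCL2-family pairs of known affinity, for each replicate. The assay was run in six technical replicates.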

Variants are written as CDR1, CDR2 and CDR3 of the light chain (limits as in the source). Parent: KSSQSVLYESRNKNSVA, WASTRES, QQYHRLPLS. Each Kd is an estimate from the mating assay, the geometric mean of the replicates in which the pair was seen; lower is stronger. "nd" means that the variant was in the library but no mating with the target was seen in any replicate; the authors take this as a sign of poor binding, and no number exists. In the paper, a design with two or fewer of six values counts as a poor binder. Nonspecific signal, from three strains lacking the peptide, appeared in 4% of pairings of all light chain designs, centred on 430 nM (5% of these signals below 38 nM); values are not corrected for it. A sequence measured in both rounds can read differently, since the two assays cover different ranges. The parent sequence was in this pool as ten entries: three were never detected, three once, and four in most replicates, with averages from 2.2 nM to 240 nM.

CDR-L1,CDR-L2,CDR-L3,apparent Kd,replicates with signal
KSSQSVLFESRNKNSVA,DASTRES,QQYHGLPLS,9.3 nM,6 of 6
TISQSVNMTSHGRNSVA,QAEMREQ,QQYDRLPLS,11 nM,6 of 6
KLQQSHLYESRNKNSVA,GASTRES,QQYHRLPLS,700 pM,6 of 6
KSSQSVLYESRNKNSVA,AASTRSS,QQYHRLPLS,53 nM,6 of 6
KYSQSVLGEQRNKNSVA,DISTRES,QQYHRLPLS,1.1 nM,6 of 6
KLSGSVEQLSRNKNSVA,HASLREV,QAYHRLPLS,4.2 nM,6 of 6
QFHSHMAGDQRNDHSIA,NATWAVP,QQYFRLPLS,11 nM,6 of 6
RIKCRVLEHGGQNNAIA,AAAKLVT,QQYARLPLA,nd,0 of 6
KSSQSVLYESRNFNSVA,WASTREY,QQYHRLPLS,280 nM,4 of 6
KMSQGVLYESRNKNSVA,GGSTRES,QQYHRLPLS,640 pM,6 of 6
KLPHLSFVHDREKNNVA,DLNVKAA,QQYDRLPLA,4.7 nM,6 of 6
KIYGFPGQMTRQANSIA,DNTTREN,QQYNRLPLS,280 nM,6 of 6
HIDWLNRGETLKKDDIA,NANHREQ,QQYFHLPLS,2.6 nM,6 of 6
HFLSLDLHQTGTLNSVA,EAEERQE,QQYARLPLM,2.1 nM,6 of 6
KSSQSVLYESMNKNSVA,WASTRES,QQYSRLPLS,13 nM,6 of 6
HLSWSVLYESRNKNNVA,NASTRES,QQYHRLPLS,490 pM,6 of 6
KLSMSALMESRNKNSVA,ENSTRES,QHYHRLPLS,2.7 µM,1 of 6
KLRQSTLYESRNQNSVA,WASTRES,QQYHRLPLS,2.8 nM,6 of 6
KFSQSVLYESRTKNGVA,DASTRES,QQYHRLPLS,2.0 nM,6 of 6
MMSQVTGMELRQQNNVA,QTTTREE,QQYDRLPLV,24 nM,6 of 6
KIRVNHYMFSQMESNIA,GSSVRST,QQYFHLPLT,2.9 nM,6 of 6
SIYDTTGMESRNKNPIA,DVSTRPS,QQYDRLPLS,6.2 nM,6 of 6
QIAMEMYHGLNDAQNVA,DAMTCEK,QQYSRLPLF,380 nM,2 of 6
KSSQSVLYESRNKNSVA,YASTRES,QQYMRLPLS,nd,0 of 6
KLQQSVLYESRNKNSVA,SASTRSS,QQYHRLPLS,1.4 nM,6 of 6
KSYPSVLYESRNKNSVA,NASTRES,QQYHRLPLQ,230 nM,1 of 6
KLPQSELYESRNKNSVA,SASTRES,QQYHRLPLS,810 pM,6 of 6
KSSQSVVYEQGNKNSVA,DASTRES,QQVHRLPLS,330 nM,4 of 6
KSSQSVLFESRNKNSVA,DASTRES,QQMQRLPLS,900 pM,6 of 6
MLDQMDGQMGVNTNNIA,GVVESRI,QQYHRLPLS,54 nM,6 of 6
KIGGVTNGISRNKQSVA,EQSTRED,QQYNRLPLS,11 nM,6 of 6
KSSQSVLTTSENCNSVA,WASTRES,QQYHRLPLS,60 nM,6 of 6
TISQSMLYLSNLKNSVA,QAETREA,QQYHRLPIS,2.1 nM,6 of 6
KSSQSVLYESKNTNSVA,WASTRES,QQYHRLPLQ,85 nM,2 of 6
EYSQSVLYESRNCNSVA,WASTRES,QQYHRLPLY,nd,0 of 6
QIGMLLNFESYKINNVA,QMSTRVN,QQYDRLPLS,4.0 nM,6 of 6
KSLQSKLYESRNKNSVA,HASTRED,QQYHQLPLS,1.6 nM,6 of 6
KLSQLWLYESRMKNSVA,NASTRES,QQYHRLPLS,3.9 nM,6 of 6
IVSQLMLWGYIAKNSIA,EAEMRLN,QQYERLPLF,nd,0 of 6
VVMQNFIDGMERQYSIA,ETTRVME,QQYFHLPLI,57 nM,5 of 6
QLGDMVHTESRNKNSIA,DMRTREK,QQYYRLPLS,2.5 nM,6 of 6
KIGQLFMLEQLHKNNVA,GTETRVT,QHYHRLPLS,17 nM,5 of 6
KISQMYRYEQQNSSSIA,EANTRMN,QSYHRLPLS,540 nM,5 of 6
TISQTLMYGMRNRSNVA,EVSERLN,QQYDRLPLM,17 nM,6 of 6
KSSQSVCYESRNKNSVA,SASTRES,QQYHRLPLS,13 nM,6 of 6
KISSLTMYESVAKNNIA,EMTTRPE,QSYHRLPLS,15 nM,6 of 6
KCQQSVLYESRNKNNVA,HASTRED,QQYHRLPLS,1.1 nM,6 of 6
KVSMSVLYESRNKNSVA,NASTRES,QQYHRLPLI,1.6 nM,6 of 6
KLSQSVWVLERNKNSVA,NASTRES,QQYHRLPLS,1.7 nM,6 of 6
KSDDSVLYEGRNKNSVA,WASTRES,QQYHRLPLS,30 nM,6 of 6
KSEQLVDYKDRNLNSVA,NASTRES,QQYHRLPLS,1.0 nM,4 of 6
KLYMSTGYESRMKDSIA,DNSTRGR,QQYHRLPLS,15 nM,6 of 6
KSDQSVLYESRNGNSVA,WASERES,QQYHRLPLS,nd,0 of 6
AVSQGWLYESRNKNSVA,GASTRED,QQYHRLPLS,3.1 nM,6 of 6
KLRQMTLTEGYFKNNVA,QASTREN,QSYHRLPLS,24 nM,5 of 6
KVSQSEPYESRNKNSVA,NASQRES,QQYHRLPLS,nd,0 of 6
KVWMSQLYESRNKNAVA,NASLRMS,QQYHRLPLS,2.1 nM,6 of 6
KSSQSVLYESRLKNNVA,WASTRES,QQYHRLPLS,28 nM,2 of 6
KLQMSEGYESRNKNSVA,EASTRCD,QQYHRLPLS,710 pM,6 of 6
LSSQSVLYEWRNKQSVA,KASTRIS,QQYKRLPLS,nd,0 of 6
SIGGHMKSSMAHRNSVA,DMTNREN,QQYDRLPLS,3.2 nM,6 of 6
MISQLMNMGQFAINSVA,QATIRNS,QQYDRLPLM,17 nM,4 of 6
KQSQSVLYESRNKNSVA,NASTRES,QQYQRLPLS,1.2 nM,6 of 6
TISMVMNHMTKNANNVA,NMDMREK,QQYDRLPLS,900 pM,6 of 6
KSSQSWLYESRNKNSVA,CASTRES,QQYHRLPLS,180 nM,6 of 6
KLYQSELYESRNKNSVA,EASQRES,QQYHRLPLS,390 pM,6 of 6
KLSDVTEYESRNKNSVA,DLSTRGS,QDYHRLPLS,1.1 nM,6 of 6
HLSQSVEYESRNKNSVA,NASTRES,QQYHRLPLS,2.3 nM,6 of 6
KLSQSWLYESRNKNSVA,NASTREL,QQYHRLPLS,730 pM,6 of 6

Top 12 of the variants detected in all replicates, tightest first:

{"CDR-L1": "KLYQSELYESRNKNSVA", "CDR-L2": "EASQRES", "CDR-L3": "QQYHRLPLS", "apparent Kd": "390 pM", "replicates with signal": "6 of 6"}
{"CDR-L1": "HLSWSVLYESRNKNNVA", "CDR-L2": "NASTRES", "CDR-L3": "QQYHRLPLS", "apparent Kd": "490 pM", "replicates with signal": "6 of 6"}
{"CDR-L1": "KMSQGVLYESRNKNSVA", "CDR-L2": "GGSTRES", "CDR-L3": "QQYHRLPLS", "apparent Kd": "640 pM", "replicates with signal": "6 of 6"}
{"CDR-L1": "KLQQSHLYESRNKNSVA", "CDR-L2": "GASTRES", "CDR-L3": "QQYHRLPLS", "apparent Kd": "700 pM", "replicates with signal": "6 of 6"}
{"CDR-L1": "KLQMSEGYESRNKNSVA", "CDR-L2": "EASTRCD", "CDR-L3": "QQYHRLPLS", "apparent Kd": "710 pM", "replicates with signal": "6 of 6"}
{"CDR-L1": "KLSQSWLYESRNKNSVA", "CDR-L2": "NASTREL", "CDR-L3": "QQYHRLPLS", "apparent Kd": "730 pM", "replicates with signal": "6 of 6"}
{"CDR-L1": "KLPQSELYESRNKNSVA", "CDR-L2": "SASTRES", "CDR-L3": "QQYHRLPLS", "apparent Kd": "810 pM", "replicates with signal": "6 of 6"}
{"CDR-L1": "TISMVMNHMTKNANNVA", "CDR-L2": "NMDMREK", "CDR-L3": "QQYDRLPLS", "apparent Kd": "900 pM", "replicates with signal": "6 of 6"}
{"CDR-L1": "KSSQSVLFESRNKNSVA", "CDR-L2": "DASTRES", "CDR-L3": "QQMQRLPLS", "apparent Kd": "900 pM", "replicates with signal": "6 of 6"}
{"CDR-L1": "KCQQSVLYESRNKNNVA", "CDR-L2": "HASTRED", "CDR-L3": "QQYHRLPLS", "apparent Kd": "1.1 nM", "replicates with signal": "6 of 6"}
{"CDR-L1": "KYSQSVLGEQRNKNSVA", "CDR-L2": "DISTRES", "CDR-L3": "QQYHRLPLS", "apparent Kd": "1.1 nM", "replicates with signal": "6 of 6"}
{"CDR-L1": "KLSDVTEYESRNKNSVA", "CDR-L2": "DLSTRGS", "CDR-L3": "QDYHRLPLS", "apparent Kd": "1.1 nM", "replicates with signal": "6 of 6"}